A value given as a limit tells only on which side of the number the result lay.

Protein sequences, listed by entry. Tags and fused reporters are not part of them. Lines headed by an entry give the natural chain unless they say otherwise; changes in a name come on top. Residues count along the entry.
UniProt P10635, whole entry, looked up: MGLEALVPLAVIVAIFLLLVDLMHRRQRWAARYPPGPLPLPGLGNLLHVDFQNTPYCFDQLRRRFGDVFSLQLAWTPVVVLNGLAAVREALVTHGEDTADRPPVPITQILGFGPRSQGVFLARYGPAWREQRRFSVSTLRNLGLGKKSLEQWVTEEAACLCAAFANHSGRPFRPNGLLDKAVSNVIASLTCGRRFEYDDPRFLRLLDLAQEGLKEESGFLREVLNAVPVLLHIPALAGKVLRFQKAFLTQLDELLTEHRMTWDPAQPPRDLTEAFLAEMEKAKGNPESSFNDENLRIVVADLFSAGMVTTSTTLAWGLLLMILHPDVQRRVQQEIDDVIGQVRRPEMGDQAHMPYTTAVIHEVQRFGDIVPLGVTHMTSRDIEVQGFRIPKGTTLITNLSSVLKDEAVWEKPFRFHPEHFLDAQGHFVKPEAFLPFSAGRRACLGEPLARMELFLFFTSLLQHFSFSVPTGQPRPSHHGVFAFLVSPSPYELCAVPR
UniProt P22002, whole entry, looked up: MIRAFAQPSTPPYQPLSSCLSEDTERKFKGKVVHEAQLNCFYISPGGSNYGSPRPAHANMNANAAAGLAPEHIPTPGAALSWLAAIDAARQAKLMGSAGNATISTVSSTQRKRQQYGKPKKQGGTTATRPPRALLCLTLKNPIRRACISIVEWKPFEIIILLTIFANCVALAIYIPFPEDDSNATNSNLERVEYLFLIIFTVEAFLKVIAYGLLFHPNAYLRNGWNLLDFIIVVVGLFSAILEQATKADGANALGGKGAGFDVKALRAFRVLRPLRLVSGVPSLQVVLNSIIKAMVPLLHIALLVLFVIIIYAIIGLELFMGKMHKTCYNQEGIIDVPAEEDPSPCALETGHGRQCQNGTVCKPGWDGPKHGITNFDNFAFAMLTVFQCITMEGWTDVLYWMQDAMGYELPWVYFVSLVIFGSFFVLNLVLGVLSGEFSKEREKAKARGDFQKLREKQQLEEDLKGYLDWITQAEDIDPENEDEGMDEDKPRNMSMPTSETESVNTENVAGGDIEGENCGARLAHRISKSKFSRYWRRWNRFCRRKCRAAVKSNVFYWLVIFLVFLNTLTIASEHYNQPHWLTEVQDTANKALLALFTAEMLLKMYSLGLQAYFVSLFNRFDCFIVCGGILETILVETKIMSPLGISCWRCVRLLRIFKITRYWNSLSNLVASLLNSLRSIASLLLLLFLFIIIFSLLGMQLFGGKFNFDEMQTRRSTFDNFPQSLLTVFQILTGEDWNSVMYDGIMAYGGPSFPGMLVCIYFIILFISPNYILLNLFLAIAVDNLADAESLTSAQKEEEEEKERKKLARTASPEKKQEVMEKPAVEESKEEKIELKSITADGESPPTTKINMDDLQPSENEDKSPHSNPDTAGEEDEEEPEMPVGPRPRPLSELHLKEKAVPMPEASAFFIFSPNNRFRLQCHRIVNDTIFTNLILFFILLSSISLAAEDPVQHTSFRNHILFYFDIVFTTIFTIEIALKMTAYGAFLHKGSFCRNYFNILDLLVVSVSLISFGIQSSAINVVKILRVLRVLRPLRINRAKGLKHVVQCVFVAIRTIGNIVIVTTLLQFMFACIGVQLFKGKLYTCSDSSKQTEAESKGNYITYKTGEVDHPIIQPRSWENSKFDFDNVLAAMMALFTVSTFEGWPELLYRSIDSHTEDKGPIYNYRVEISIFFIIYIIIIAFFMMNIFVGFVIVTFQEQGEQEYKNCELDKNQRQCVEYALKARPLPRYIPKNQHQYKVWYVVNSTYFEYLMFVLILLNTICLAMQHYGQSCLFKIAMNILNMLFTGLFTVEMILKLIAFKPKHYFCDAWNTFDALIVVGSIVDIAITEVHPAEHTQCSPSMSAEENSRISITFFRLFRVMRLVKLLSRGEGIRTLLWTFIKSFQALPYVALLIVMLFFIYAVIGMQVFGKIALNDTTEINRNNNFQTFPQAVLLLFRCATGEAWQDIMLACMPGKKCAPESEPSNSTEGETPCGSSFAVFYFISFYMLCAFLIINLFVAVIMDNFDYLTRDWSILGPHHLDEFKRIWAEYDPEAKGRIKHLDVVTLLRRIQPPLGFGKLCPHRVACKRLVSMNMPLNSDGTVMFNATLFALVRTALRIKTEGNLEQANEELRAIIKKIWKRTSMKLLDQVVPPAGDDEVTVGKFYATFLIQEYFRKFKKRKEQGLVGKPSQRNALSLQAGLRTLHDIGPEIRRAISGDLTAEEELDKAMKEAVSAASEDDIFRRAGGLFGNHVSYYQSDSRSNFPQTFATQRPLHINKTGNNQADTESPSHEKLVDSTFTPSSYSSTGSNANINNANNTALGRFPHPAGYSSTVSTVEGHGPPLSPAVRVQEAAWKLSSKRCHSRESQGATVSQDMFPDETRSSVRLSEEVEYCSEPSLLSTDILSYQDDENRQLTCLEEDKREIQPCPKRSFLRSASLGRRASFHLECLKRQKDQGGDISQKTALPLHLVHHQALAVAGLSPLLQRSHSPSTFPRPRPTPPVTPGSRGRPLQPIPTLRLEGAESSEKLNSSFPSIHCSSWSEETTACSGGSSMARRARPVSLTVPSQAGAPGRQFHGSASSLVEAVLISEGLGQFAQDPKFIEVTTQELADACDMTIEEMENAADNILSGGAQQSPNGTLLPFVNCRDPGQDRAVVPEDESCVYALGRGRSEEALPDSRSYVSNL
UniProt P27732, whole entry, looked up: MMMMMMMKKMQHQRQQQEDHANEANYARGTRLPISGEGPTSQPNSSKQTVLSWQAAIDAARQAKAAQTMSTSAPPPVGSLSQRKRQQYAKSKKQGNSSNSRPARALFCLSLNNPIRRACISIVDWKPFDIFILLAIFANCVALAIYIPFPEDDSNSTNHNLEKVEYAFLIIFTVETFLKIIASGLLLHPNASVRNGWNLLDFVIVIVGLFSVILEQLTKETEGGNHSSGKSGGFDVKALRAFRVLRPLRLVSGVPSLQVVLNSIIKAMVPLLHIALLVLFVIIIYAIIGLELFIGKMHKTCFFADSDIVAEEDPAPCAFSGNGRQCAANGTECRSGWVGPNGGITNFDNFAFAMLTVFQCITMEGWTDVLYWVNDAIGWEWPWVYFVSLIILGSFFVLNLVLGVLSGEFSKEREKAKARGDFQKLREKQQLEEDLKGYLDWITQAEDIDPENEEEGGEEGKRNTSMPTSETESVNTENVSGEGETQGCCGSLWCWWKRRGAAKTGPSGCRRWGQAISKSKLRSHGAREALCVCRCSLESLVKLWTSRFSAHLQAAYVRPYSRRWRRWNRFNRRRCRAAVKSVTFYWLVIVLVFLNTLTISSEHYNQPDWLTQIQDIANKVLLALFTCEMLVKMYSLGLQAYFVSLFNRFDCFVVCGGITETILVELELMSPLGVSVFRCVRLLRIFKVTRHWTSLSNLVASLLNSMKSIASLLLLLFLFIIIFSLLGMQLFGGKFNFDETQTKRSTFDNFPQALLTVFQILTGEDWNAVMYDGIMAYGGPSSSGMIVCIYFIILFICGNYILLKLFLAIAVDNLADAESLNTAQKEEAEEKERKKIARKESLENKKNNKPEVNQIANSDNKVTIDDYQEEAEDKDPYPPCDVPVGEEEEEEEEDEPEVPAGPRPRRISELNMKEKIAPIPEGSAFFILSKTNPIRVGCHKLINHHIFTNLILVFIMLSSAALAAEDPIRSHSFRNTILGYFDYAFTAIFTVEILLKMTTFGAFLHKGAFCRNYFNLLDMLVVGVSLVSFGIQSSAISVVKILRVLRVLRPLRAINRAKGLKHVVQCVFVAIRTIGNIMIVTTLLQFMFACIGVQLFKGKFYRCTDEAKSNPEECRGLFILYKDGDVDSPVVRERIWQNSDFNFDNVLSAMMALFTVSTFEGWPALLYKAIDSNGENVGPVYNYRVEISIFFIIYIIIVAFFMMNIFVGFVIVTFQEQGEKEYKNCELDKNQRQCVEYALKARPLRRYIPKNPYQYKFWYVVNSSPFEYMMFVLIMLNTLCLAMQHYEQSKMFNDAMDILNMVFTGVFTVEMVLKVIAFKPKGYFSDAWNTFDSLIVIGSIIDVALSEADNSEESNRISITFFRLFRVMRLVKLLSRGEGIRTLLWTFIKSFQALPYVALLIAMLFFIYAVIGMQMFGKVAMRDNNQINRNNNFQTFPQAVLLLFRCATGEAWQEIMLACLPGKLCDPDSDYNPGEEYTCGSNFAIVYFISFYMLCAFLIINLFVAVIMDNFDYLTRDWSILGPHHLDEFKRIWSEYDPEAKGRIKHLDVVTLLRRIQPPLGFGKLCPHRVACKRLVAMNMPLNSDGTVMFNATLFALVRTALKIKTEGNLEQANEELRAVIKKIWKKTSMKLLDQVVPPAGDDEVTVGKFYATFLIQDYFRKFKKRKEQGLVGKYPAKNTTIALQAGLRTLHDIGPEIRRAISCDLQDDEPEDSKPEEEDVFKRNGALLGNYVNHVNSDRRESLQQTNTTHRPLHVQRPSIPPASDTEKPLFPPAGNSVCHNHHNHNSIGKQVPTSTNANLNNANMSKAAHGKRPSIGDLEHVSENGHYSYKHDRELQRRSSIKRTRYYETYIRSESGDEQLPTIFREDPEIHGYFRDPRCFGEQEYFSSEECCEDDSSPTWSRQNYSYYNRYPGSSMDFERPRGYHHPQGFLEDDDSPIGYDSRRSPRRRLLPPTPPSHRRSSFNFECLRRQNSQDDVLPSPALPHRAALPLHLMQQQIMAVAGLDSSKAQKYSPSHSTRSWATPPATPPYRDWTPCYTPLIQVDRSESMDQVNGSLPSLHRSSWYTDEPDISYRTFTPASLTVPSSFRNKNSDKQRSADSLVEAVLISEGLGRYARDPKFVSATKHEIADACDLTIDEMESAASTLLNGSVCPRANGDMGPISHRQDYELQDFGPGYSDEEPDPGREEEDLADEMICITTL
UniProt P11712, whole entry, looked up: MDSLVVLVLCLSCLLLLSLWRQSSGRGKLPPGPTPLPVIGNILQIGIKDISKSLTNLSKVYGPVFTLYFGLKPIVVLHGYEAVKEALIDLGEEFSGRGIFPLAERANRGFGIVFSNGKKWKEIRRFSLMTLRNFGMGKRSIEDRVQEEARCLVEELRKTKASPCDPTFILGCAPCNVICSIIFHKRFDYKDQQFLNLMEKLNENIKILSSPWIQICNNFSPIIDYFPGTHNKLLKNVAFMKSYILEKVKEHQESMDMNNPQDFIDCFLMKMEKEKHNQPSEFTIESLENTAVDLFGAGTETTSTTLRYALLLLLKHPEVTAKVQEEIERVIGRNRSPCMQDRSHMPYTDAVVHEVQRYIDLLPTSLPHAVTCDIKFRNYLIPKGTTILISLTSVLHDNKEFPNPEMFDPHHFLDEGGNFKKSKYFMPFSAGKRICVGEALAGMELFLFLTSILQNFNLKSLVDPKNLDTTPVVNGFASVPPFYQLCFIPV
UniProt P08684, 2-503 limits assumed: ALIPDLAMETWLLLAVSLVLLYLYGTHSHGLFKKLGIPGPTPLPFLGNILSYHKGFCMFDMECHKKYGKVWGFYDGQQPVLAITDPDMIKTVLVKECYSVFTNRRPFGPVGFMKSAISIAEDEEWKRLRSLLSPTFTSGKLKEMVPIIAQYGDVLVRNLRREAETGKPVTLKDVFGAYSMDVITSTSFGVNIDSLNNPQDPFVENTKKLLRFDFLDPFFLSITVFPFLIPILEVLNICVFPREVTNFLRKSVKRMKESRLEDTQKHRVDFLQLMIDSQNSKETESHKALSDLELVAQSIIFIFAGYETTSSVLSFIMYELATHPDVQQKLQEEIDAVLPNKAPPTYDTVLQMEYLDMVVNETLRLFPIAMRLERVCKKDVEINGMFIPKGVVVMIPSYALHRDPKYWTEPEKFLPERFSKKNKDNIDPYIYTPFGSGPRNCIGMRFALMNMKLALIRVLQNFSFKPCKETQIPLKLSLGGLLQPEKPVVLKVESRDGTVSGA
UniProt P11509: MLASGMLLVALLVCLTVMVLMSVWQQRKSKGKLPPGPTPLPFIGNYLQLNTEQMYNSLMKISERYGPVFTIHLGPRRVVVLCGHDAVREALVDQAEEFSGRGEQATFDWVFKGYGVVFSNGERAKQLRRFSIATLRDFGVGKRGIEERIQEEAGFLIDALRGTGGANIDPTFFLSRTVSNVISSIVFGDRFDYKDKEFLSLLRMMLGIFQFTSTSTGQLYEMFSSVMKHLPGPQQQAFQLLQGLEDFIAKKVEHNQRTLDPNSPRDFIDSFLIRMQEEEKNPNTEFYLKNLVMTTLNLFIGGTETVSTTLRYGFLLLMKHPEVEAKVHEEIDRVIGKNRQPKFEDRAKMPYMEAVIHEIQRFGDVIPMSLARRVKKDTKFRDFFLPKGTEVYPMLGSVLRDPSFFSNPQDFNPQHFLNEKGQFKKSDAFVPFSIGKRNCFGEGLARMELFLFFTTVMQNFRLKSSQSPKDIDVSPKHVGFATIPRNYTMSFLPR

Experimental findings from ChEMBL document CHEMBL3352090, “Discovery of a Potent Analgesic NOP and Opioid Receptor Agonist: Cebranopadol” (2014) are described below.

Data set [1] concerns Mus musculus. In words: Antinociceptive activity in orally dosed NMRI mouse assessed as time duration showing >20% maximum possible antinociceptive efficacy by tail flick test. Particulars: strain NMRI; call rule not given here. Background: Thermal pain tests record how soon the animal reacts.
For data set [2], the system named is Mus musculus. The data set is described as follows: Neurotoxicity in CD1 mouse assessed as effect on motor coordination up to 376 nmol/kg, iv by rotarod test. Particulars: in vivo. (In general: The rotarod test checks motor coordination on a turning rod.)
Another data set deals with Cytochrome P450 2D6 (Homo sapiens, UniProt P10635). The data set is described as follows: Inhibition of human CYP2D6 up to 250 nM.
The next data set addresses Cytochrome P450 2B6 (Homo sapiens, UniProt P20813). The data set is described as follows: Inhibition of human CYP2B6 up to 250 nM.
Another data set has as its target Cytochrome P450 2C8 (Homo sapiens, UniProt P10632). In words: Inhibition of human CYP2C8 up to 250 nM.
A further data set deals with Cytochrome P450 2C19 (Homo sapiens, UniProt P33261). In words: Inhibition of human CYP2C19 up to 250 nM.
Data set [3] deals with Mus musculus. In words: Antinociceptive activity in CD1 mouse model of streptozotocin induced diabetic polyneuropathy assessed as reduction in thermal hyperalgesia at 2.1 nmol/kg, iv by hot plate test relative to untreated control.
Data set [4] deals with Mus musculus. The data set is described as follows: Neurotoxicity in CD1 mouse assessed as impairment of motor coordination at 454 nmol/kg, iv by rotarod test. Particulars: in vivo.
Data set [5] deals with Mus musculus. The data set is described as follows: Neurotoxicity in CD1 mouse assessed as maximum performance time on rotating rod at 454 nmol/kg, iv after 15 mins post dose by rotarod test (reference value: 120 secs). The settings on record: in vivo, 0.25 h.
Data set [6] relates to Mus musculus. In words: Antinociceptive activity in iv dosed NMRI mouse assessed as time duration showing >20% maximum possible antinociceptive efficacy by tail flick test. The settings on record: strain NMRI.
Data set [7] addresses T1, Voltage-gated L-type calcium channel (Rattus norvegicus, UniProt P22002+Q02485+P27732). In words: Inhibition of rat brain cortex L-type Ca2+-channel phenylalkylamine site.
The test system of data set [8] is Mus musculus. The data set is described as follows: Neurotoxicity in CD1 mouse assessed as increase in failure to stay on rotating rod at 454 nmol/kg, iv by rotarod test. Particulars: in vivo.
Another data set relates to Rattus norvegicus. The data set is described as follows: Oral bioavailability in rat. The settings on record: in vivo.
In data set [9] the test system is Mus musculus. In words: Neurotoxicity in CD1 mouse assessed as reduction in time for animals to remain on rotating rod at 454 nmol/kg, iv by rotarod test. Particulars: in vivo.
For data set [10], the species on record is Mus musculus. In words: Volume of distribution in mouse. Particulars: in vivo.
For another data set, the target named is Cytochrome P450 2C9 (Homo sapiens, UniProt P11712). The data set is described as follows: Inhibition of human CYP2C9 up to 250 nM.
Data set [11] deals with Mus musculus. The data set is described as follows: Neurotoxicity in iv dosed CD1 mouse by rotarod test. Particulars: in vivo.
Data set [12] deals with Mus musculus. The data set is described as follows: Potency index, ratio of antinociceptive ED50 for iv dosed NMRI mouse by tail flick test to antinociceptive efficacy in CD1 mouse model of streptozotocin induced diabetic polyneuropathy.
The test system of data set [13] is Mus musculus. In words: Antinociceptive activity in orally dosed NMRI mouse assessed as increase in latency for tail withdrawal from radiant heat source by tail flick test. Particulars: strain NMRI.
For the next data set, the target named is Cytochrome P450 3A4 (Homo sapiens, UniProt P08684). In words: Inhibition of human CYP3A4 up to 250 nM.
Another data set concerns the target Cytochrome P450 2E1 (Homo sapiens, UniProt P05181). In words: Inhibition of human CYP2E1 up to 250 nM.
Data set [14] deals with T1, Voltage-gated L-type calcium channel. In words: Inhibition of rat brain cortex L-type Ca2+-channel benzothiazepine site.
The species entered for data set [15] is Mus musculus. In words: Half life in mouse. The settings on record: in vivo.
For the next data set, the target named is Cytochrome P450 1A2 (Homo sapiens, UniProt P05177). The data set is described as follows: Inhibition of human CYP1A2 up to 250 nM.
The test system of data set [16] is Mus musculus. The data set is described as follows: Neurotoxicity in iv dosed CD1 mouse assessed as impairment of motor coordination by rotarod test. The settings on record: in vivo.
For data set [17], the target named is T2, Voltage-gated inwardly rectifying potassium channel KCNH2 (Homo sapiens, UniProt Q12809). In words: Inhibition of human ERG expressed in HEK293 cells assessed as reduction in potassium currents up to 10 uM by whole cell patch clamp method. Background: The patch-clamp technique gives a direct electrical read-out from membranes.
The next data set concerns the target Cytochrome P450 3A5 (Homo sapiens, UniProt P20815). The data set is described as follows: Inhibition of human CYP3A5 up to 250 nM.
The subject of data set [18] is Mus musculus. The data set is described as follows: Safety index, ratio of NOAEL for iv dosed CD1 mouse by rotarod test to antinociceptive ED50 for iv dosed NMRI mouse by tail flick test.
The test system of data set [19] is Mus musculus. In words: Antinociceptive activity in iv dosed NMRI mouse assessed as increase in latency for tail withdrawal from radiant heat source by tail flick test. The settings on record: strain NMRI.
A further data set deals with Cytochrome P450 2A6 (Homo sapiens, UniProt P11509). The data set is described as follows: Inhibition of human CYP2A6 up to 250 nM.
Data set [20] addresses T1, Voltage-gated L-type calcium channel. The data set is described as follows: Inhibition of rat whole brain L-type Ca2+-channel dihydropyridine site.
For data set [21], the system named is Mus musculus. The data set is described as follows: Gastrointestinal toxicity in iv dosed NMRI mouse assessed as inhibition of intestinal charcoal transit by charcoal transit test. Particulars: in vivo.
The target in data set [22] is T3, Mu-type opioid receptor (Homo sapiens, UniProt P35372). In words: Displacement of [3H]naloxone from human MOP receptor expressed in CHO-K1 cells by scintillation proximity assay.
In data set [23] the target is T4, Nociceptin receptor (Homo sapiens, UniProt P41146). The data set is described as follows: Displacement of [3H]nociceptin from human NOP receptor expressed in CHO-K1 cells by scintillation proximity assay.
For data set [24], the system named is Mus musculus. In words: Oral bioavailability in mouse. The settings on record: in vivo.
For data set [25], the target named is T3, Mu-type opioid receptor. The data set is described as follows: Agonist activity at human recombinant MOP receptor expressed in CHO-K1 cells assessed as stimulation of [35S]GTPgammaS binding by scintillation proximity assay.
For data set [26], the target named is Delta-type opioid receptor (Homo sapiens, UniProt P41143). The data set is described as follows: Binding affinity to human delta opioid receptor.
Data set [27] addresses T4, Nociceptin receptor. In words: Agonist activity at human recombinant NOP receptor expressed in CHO-K1 cells assessed as stimulation of [35S]GTPgammaS binding by scintillation proximity assay.
The target of data set [28] is Kappa-type opioid receptor (Homo sapiens, UniProt P41145). The data set is described as follows: Binding affinity to human kappa opioid receptor.
Data set [29] addresses T2, Voltage-gated inwardly rectifying potassium channel KCNH2. In words: Inhibition of human ERG.

A word on the Ki: it is a dissociation constant, usually derived from enzyme kinetics or from competition with a known ligand. The term bioavailability denotes the share of a dose that reaches the circulation, judged against a reference dose that is usually intravenous. Read a high bioavailability as much systemic uptake. As a reminder, the NOAEL is the highest dose or exposure tested at which no adverse effect was seen. One may read the ED50 as the dose at which the effect has come halfway, by size or by number of responders. Take `CN(C)[C@]1(c2ccccc2)CC[C@]2(CC1)OCCc1c3cc(F)ccc3[nH]c12.O=C(O)CC(O)(CC(=O)O)C(=O)O`: the Time is above 480 min in the data set on Mus musculus [1], 72 s in the data set with Mus musculus [5], 180 min in the data set with Mus musculus [6] and 30 min with Mus musculus [9]. For the same compound, the Activity result is on record as “Non-toxic” with Mus musculus [2], “Toxic” in the data set on Mus musculus [4], “Toxic” with Mus musculus [8] and “Dose-dependent effect” in the data set on Mus musculus [21]. The “inhibition (INH)” value against Cytochrome P450 2D6, on Cytochrome P450 2B6, against Cytochrome P450 2C8, against Cytochrome P450 2C19, against Cytochrome P450 2C9 and at Cytochrome P450 3A4 was “Not Active” in each case. Moreover, the “inhibition (INH)” value (against Cytochrome P450 2E1; on Cytochrome P450 1A2; in data set [17]; at Cytochrome P450 3A5; against Cytochrome P450 2A6) was “Not Active” in each case. In addition, the values for the MPE in the data set with Mus musculus [3], in the data set on Mus musculus [13] and in the data set with Mus musculus [19] were 54.1%, 100% and above 95%, respectively. In addition, the inhibition constant (Ki) in data set [7] was 480 nM; in [14], 800 nM; in data set [20], above 100000 nM. This compound had a bioavailability with Rattus norvegicus of 23%. The Vc in the data set filed under Mus musculus [10] was found to be 2.96 L/kg. Moreover, the NOAEL with Mus musculus [11] stood at 376 nmol/kg; with Mus musculus [21] it was 21 nmol/kg. Further, the Ratio with Mus musculus [12] came out at 20. The ED50 with Mus musculus [13] was 0.077 µmol/kg; in the data set with Mus musculus [16] it was above 454 nmol/kg; in the data set on Mus musculus [19], 0.0401 µmol/kg; in the data set on Mus musculus [21], 87 nmol/kg. Besides, the t1/2 in the data set filed under Mus musculus [15] is 2.57 h. Moreover, the TI in the data set with Mus musculus [18] was at least 10.
With `CN(C)[C@]1(c2ccccc2)CC[C@]2(CC1)SCCc1c3ccccc3[nH]c12`, the values for the Ki at Mu-type opioid receptor [22] and at Nociceptin receptor [23] were 3.1 nM and 3.7 nM, respectively.
`CN(C)[C@]1(c2ccccc2)CC[C@@]2(CCCc3c4ccccc4[nH]c32)CC1`: the values for the inhibition constant Ki on Mu-type opioid receptor [22] and at Nociceptin receptor [23] were 1.95 nM and 1.26 nM, respectively.
One may read the Vz as the apparent volume that relates the amount in the body to the concentration in plasma or blood. Low values mean little distribution into tissue, high ones wide distribution into tissue. As to `CN[C@]1(c2ccccc2)CC[C@]2(CC1)OCCc1c3cc(F)ccc3[nH]c12.O=C(O)CC(O)(CC(=O)O)C(=O)O`, the Vz in the data set listed under Mus musculus [10] amounted to 72.5 L/kg. This compound also came in with a t1/2 in the data set listed under Mus musculus [15] of 3.5 h.
For `CN(C)[C@]1(c2ccccc2)CC[C@]2(CC1)OCCc1c3cc(O)ccc3[nH]c12.O=C(O)CC(O)(CC(=O)O)C(=O)O`, the bioavailability with Mus musculus [24] amounted to 14%.
One may read the EC50 as the concentration at which the effect is half-maximal. Regarding `CN(C)[C@]1(c2ccccc2)CC[C@]2(CC1)OCCc1c3cc(F)ccc3[nH]c12`, the EC50 at Mu-type opioid receptor [25] is 1.2 nM; on Nociceptin receptor [27], 13 nM. Besides, the Ki was 18 nM in [26]; 0.7 nM at Mu-type opioid receptor [22]; 0.9 nM on Nociceptin receptor [23]; 2.6 nM in data set [28]; above 100000 nM in data set [29].
Regarding `CN(C)[C@]1(c2ccccc2)CC[C@]2(CC1)NCCc1c3ccccc3[nH]c12.Cl`, the “inhibition (INH)” value in data set [29] (human) was “Active”.
For the compound `Cc1ccc2[nH]c3c(c2c1)CCO[C@]31CC[C@](c2ccccc2)(N(C)C)CC1`, the Ki at Mu-type opioid receptor [22] came out at 2.7 nM; on Nociceptin receptor [23], 4.5 nM.
Consider `CN1CC[C@]23c4c5ccc(O)c4O[C@H]2C(=O)CC[C@H]3[C@H]1C5.Cl`, for which, in the data set with Mus musculus [13], the 50% effective dose (ED50) came out at 18.8 µmol/kg and the MPE was above 95%. Further, in the data set on Mus musculus [19], the median effective dose (ED50) was 0.622 µmol/kg and the MPE turned out to be 100%.
As for `COc1ccc2[nH]c3c(c2c1)CCO[C@]31CC[C@](c2ccccc2)(N(C)C)CC1`, the Ki is 1.1 nM at Mu-type opioid receptor [22] and 9.4 nM on Nociceptin receptor [23].
For `CN(C)[C@]1(c2ccccc2)CC[C@@]2(CC1)OCCc1c3cc(F)ccc3[nH]c12`, in that order: 46 nM and 97.4 nM.
